Results published in patent US10450260B2, “NO- and H2S-releasing compounds” (RESEARCH FOUNDATION OF THE CITY UNIVERSITY OF NEW YORK, priority 2011, dated 2019).

System: gastric mucosa
Assay: Gastric damage, ulcer index
Format: in vivo, rat
Conditions: rats, oral gavage, equimolar doses: ASA 180, NOSH-ASA 477, naproxen 80, NOSH-naproxen 188, sulindac 200, NOSH-sulindac 467 mg/kg; 6 h post-administration; vehicle UI=0
Protocol: The institutional animal care and research committees approved all experimental procedures described herein. Male Wistar rats (4 per group) weighing 180-200 g were obtained from Charles River Laboratories International (Wilmington, Mass.). The rats were fed standard laboratory chow and water. Rats were fasted for 48 h with free access to drinking water. […] Stomachs were then rapidly removed, cut along the greatest curvature, and rinsed with ice-cold distilled water. The ulcer index (UI) was determined as described by Best et al (Best R, et al. Br J Pharmacol 1984, 82:107-116). Tissues from stomachs were excised and processed for measurement of Prostaglandin E2 (PGE2), malondialdehyde (MDA) and Superoxide dismutase (SOD) activity.

With `COc1ccc2cc([C@H](C)C(=O)O)ccc2c1` [naproxen, reference compound] the “gastric damage score, ulcer index (UI)” value was 80.
